Here are results for 1 compound from US12129235B2, “TSPO binders” (The University Court of the University of Glasgow, priority 2018, dated 2024).

Protein sequences, listed by entry. Tags and fused reporters are not part of them.
UniProt P30536, whole entry: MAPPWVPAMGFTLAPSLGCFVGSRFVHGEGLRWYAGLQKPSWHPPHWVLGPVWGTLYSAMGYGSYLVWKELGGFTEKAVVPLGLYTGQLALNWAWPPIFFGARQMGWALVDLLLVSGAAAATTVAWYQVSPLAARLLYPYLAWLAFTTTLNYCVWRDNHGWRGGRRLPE

SMILES strings stand for the structures. Values joined by “and” are separate entries in the source; they are usually repeats but may differ in a detail not shown here. Identical values can stand only once.

A word on the Kd: it is the concentration at which binding is half-saturated. Read a low Kd as tighter binding. The Ki is a dissociation constant, usually derived from enzyme kinetics or from competition with a known ligand.

Test [1] addresses T1, TSPO (Homo sapiens, UniProt P30536). As to conditions: saturation binding curves. The procedure: (§1) All studies using human tissue were conducted in accordance with the East of Scotland Research Ethics Service (Edinburgh Brain Bank, 11/ES/0022). […] To exclude sex dependent differences in TSPO binding (Fairweather et al.), only male samples were utilized in this study. Sample tissues were homogenized in 10× w/v buffer (50 mM Tris-Base, pH 7.4, 4° C.) before centrifugation (32,000 g, 10 min, 4° C.). Tissue pellets were then resuspended in 10× w/v buffer and centrifuged again before re-suspending them in buffer (2 mL). Samples were then assessed for protein concentration using the Bio-Rad protein assay (Bio-Rad, USA), aliquoted and stored at −80° C. until use.
(§2) Competition binding assays were carried out as previously reported (Blair et al. (Med. Chem. Commun.)). […] A concentration of 8 μM was used to determine non-specific binding for each ligand. Binding was terminated with the addition of 2 mL of ice cold buffer before being immediate filtered over a Whatman GF/B filters (Whatman, UK) pre-treated with 0.3% polyethylenimine (Sigma-Aldrich, USA) using a Brandel harvester (Brandel, USA). Filter paper was then removed, placed into 2.5 mL of Optiphase HiSafe 3 (Perkin Elmer, USA) and counted 48 hours later on a Hidex 300 SL (Hidex, Finland). […] Affinity values (Ki) were calculated by fitting individual tissue samples based on the mean group fitting.

Test [2] has as its target T1, TSPO. Nature of the test: Competition binding assay against ^3H-PK11195 in human brain homogenate (HAB, MAB, LAB). Further details: other: human brain; other: human heart. As to conditions: read-out: mean affinity (Ki). The procedure: as §1, §2
Test [3] concerns the target T1, TSPO. Put plainly: Competition binding assay against ^3H-PK11195 in human heart homogenate (HAB, MAB, LAB). Further details: other: human brain; other: human heart. As to conditions: read-out: mean affinity (Ki). The procedure: as §1, §2

In turn, `CCC(C)N(C)C(=O)c1cc2ccccc2c(-c2ccccc2Cl)n1` (stereo not drawn) [PK11195] returned a Kd in test [1] of 13.9 nM. For the same compound, the Ki in test [2] is 1.2 nM; in test [3], 1.7 nM and 1.2 nM.
